Assays:
Nocardioides sp. SG-4G = experiment: Resting cell studies of carbendazim degradation (LC-MS); format: cell-based; details: 8 ppm carbendazim, resting cells of strain SG-4G
SG-4G 30 kD retentate [1] = experiment: Carbendazim degrading activity of the 30 kD retentate; format: biochemical, Nocardioides sp. SG-4G; details: 30 kD retentate (proteins 30-50 kD) of resting cell supernatant
[2] = cited from earlier work
SG-4G 30 kD retentate [3] = details: 10 μM final substrate, 25 mM Tris-HCl pH8.0, 30° C., FIG. 10
[4] = target: carbendazim hydrolysing enzyme from strain SG-4G (Nocardioides sp., UniProt C8CP46); experiment: Esterase activity of ion exchange chromatography fractions; format: biochemical, Nocardioides sp. SG-4G; details: fractions showing carbendazim hydrolytic activity, FIG. 4

Sequences of proteins named here, by UniProt entry; tags and fusion partners are left off. A change or cut given only in a name is not applied to a line headed by its entry.
UniProt C8CP46: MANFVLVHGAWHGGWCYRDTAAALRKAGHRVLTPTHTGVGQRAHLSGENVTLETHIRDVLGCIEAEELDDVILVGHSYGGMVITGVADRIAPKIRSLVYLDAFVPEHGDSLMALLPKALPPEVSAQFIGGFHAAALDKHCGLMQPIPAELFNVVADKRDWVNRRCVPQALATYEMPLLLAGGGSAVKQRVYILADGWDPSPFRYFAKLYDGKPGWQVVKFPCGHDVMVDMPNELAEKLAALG

Molecule | activity of SG-4G protein extract for SP substrate (SG-4G 30 kD retentate [3]) | other results
COC(=O)Nc1nc2ccccc2[nH]1 [carbendazim] | – | time to complete disappearance and mineralisation (Nocardioides sp. SG-4G): three; carbendazim degrading activity (SG-4G 30 kD retentate [1]): shown to have activity; solubility [2]: 8 ppm
(R)-α-Cyano-(6-methoxynaphthalen-2-yl)methyl (1R)trans-3-(2,2-Dichloro vinyl)-2,2-dimethylcyclopropanecarboxylate | significant activity | –
(R)-α-Cyano-(6-methoxynaphthalen-2-yl)methyl (1S)trans-3-(2,2-Dichloro vinyl)-2,2-dimethylcyclopropanecarboxylate | No activity | –
(R)-α-Cyano-(6-methoxynaphthalen-2-yl)methyl (2R)-(4-Chlorophenyl)-3-methylbutanoate | No activity | –
(S)-α-Cyano-(6-methoxy naphthalen-2-yl)methyl (1R) cis-3-(2,2-Dichlorovinyl)-2,2-dimethylcyclopropanecarboxylate | significant activity | –
(S)-α-Cyano-(6-methoxynaphthalen-2-yl)methyl (1S) trans-3-(2,2-Dichlorovinyl)-2,2-dimethylcyclopropanecarboxylate | significant activity | –
naphthyl acetate | – | esterase activity [4]: demonstrated esterase activity

— US8278063B2, “Methods for degrading toxic compounds” (Commonwealth Scientific and Industrial Research Organisation, priority 2007, dated 2012)
